In US10912763B2 (priority 2010, dated 2021):
Where two headings read alike, the source gives them in different places.

Tested on: acute post-operative pain following orthopedic surgery (bunionectomy)
Conditions: for sum of pain intensity differences, LS mean / sum of pain intensity differences, LS mean Δplacebo / LS mean Δplacebo, sum of pain intensity differences / LS mean, sum of pain intensity differences / Sum of pain intensity differences, LS mean Δplacebo / Sum of pain intensity differences, LS mean: 2 to 10 hour period; for sum of pain intensity differences, LS mean / sum of pain intensity differences, LS mean Δplacebo: ANCOVA; for TEAE: ASAT increased / TEAE: Dizziness / TEAE: Hot flush / TEAE: Hyperhidrosis / TEAE: Nausea / TEAE: Pruritus / TEAE: Somnolence / TEAE: Vomiting: 100% = total number of subjects in treatment group; for Sum of pain intensity differences, LS mean: hemicitrate oral solution in Macrogol 400

For `CN(C)[C@]1(c2ccccc2)CC[C@]2(CC1)OCCc1c3cc(F)ccc3[nH]c12`, the “Difference to placebo groups on the primary parameter” value (“Difference to placebo groups” for short) (200 μg dose) was “no statistically significant difference”, the deaths (200 μg single dose) was 0 and the “subjects with SAE's” value (200 μg single dose) was 0. The “subjects with TEAE(s) (n (%))” value (200 μg single dose) was 37 (67.3) n (%), the “subjects with TEAE(s): related (n (%))” value (200 μg single dose) was 24 (43.6) n (%) and the “subjects with TEAE(s): serious (n (%))” value (200 μg single dose) was 0 n (%). The “total number of TEAE's: related (n (%))” value (200 μg single dose) was 37 (49.3) n (%), the “sum of pain intensity differences, LS mean” value (200 μg single dose) was 46.05 and the “sum of pain intensity differences, LS mean Δplacebo” value (200 μg single dose) was −3.08. For the same compound, the “TEAE: ASAT increased” value (200 μg single dose) was 1.8%, the “TEAE: Dizziness” value (200 μg single dose) was 20.0% and the “TEAE: Hot flush” value (200 μg single dose) was 1.8%. The “TEAE: Hyperhidrosis” value (200 μg single dose) was 0%, the “TEAE: Nausea” value (200 μg single dose) was 29.1% and the “TEAE: Pruritus” value (200 μg single dose) was 0%. The “TEAE: Somnolence” value (200 μg single dose) was 1.8%, the “TEAE: Vomiting” value (200 μg single dose) was 9.1% and the “Difference to placebo groups” value (400 μg dose) was “statistically significant difference”. The “Efficacy compared with morphine” value (400 μg dose, vs morphine 60 mg) was “comparable in efficacy”, the deaths (400 μg single dose) was 0 and the “subjects with SAE's” value (400 μg single dose) was 0. For the same compound, the “subjects with TEAE(s) (n (%))” value (400 μg single dose) was 38 (77.6) n (%), the “subjects with TEAE(s): related (n (%))” value (400 μg single dose) was 32 (65.3) n (%) and the “subjects with TEAE(s): serious (n (%))” value (400 μg single dose) was 0 n (%). For the same compound, the “total number of TEAE's: related (n (%))” value (400 μg single dose) was 74 (59.2) n (%), the “sum of pain intensity differences, LS mean” value (400 μg single dose) was 35.28 and the “sum of pain intensity differences, LS mean Δplacebo” value (400 μg single dose) was −13.85. The “TEAE: ASAT increased” value (400 μg single dose) was 6.1%, the “TEAE: Dizziness” value (400 μg single dose) was 22.4% and the “TEAE: Hot flush” value (400 μg single dose) was 4.1%. The “TEAE: Hyperhidrosis” value (400 μg single dose) was 0%, the “TEAE: Nausea” value (400 μg single dose) was 49.0% and the “TEAE: Pruritus” value (400 μg single dose) was 6.1%. For the same compound, the “TEAE: Somnolence” value (400 μg single dose) was 10.2%, the “TEAE: Vomiting” value (400 μg single dose) was 20.4% and the “Difference to placebo groups” value (600 μg dose) was “statistically significant difference”. For the same compound, the “Incidence of adverse events” value (600 μg dose, vs morphine 60 mg) was “comparable to that of the morphine patient group”, the deaths (600 μg single dose) was 0 and the “subjects with SAE's” value (600 μg single dose) was 0. For the same compound, the “subjects with TEAE(s) (n (%))” value (600 μg single dose) was 48 (84.2) n (%), the “subjects with TEAE(s): related (n (%))” value (600 μg single dose) was 43 (75.4) n (%) and the “subjects with TEAE(s): serious (n (%))” value (600 μg single dose) was 0 n (%). The “total number of TEAE's: related (n (%))” value (600 μg single dose) was 146 (73.7) n (%), the “sum of pain intensity differences, LS mean” value (600 μg single dose) was 35.15 and the “sum of pain intensity differences, LS mean Δplacebo” value (600 μg single dose) was −13.98. The “TEAE: ASAT increased” value (600 μg single dose) was 1.8%, the “TEAE: Dizziness” value (600 μg single dose) was 26.3% and the “TEAE: Hot flush” value (600 μg single dose) was 7.0%. The “TEAE: Hyperhidrosis” value (600 μg single dose) was 5.3%, the “TEAE: Nausea” value (600 μg single dose) was 64.9% and the “TEAE: Pruritus” value (600 μg single dose) was 3.5%. The “TEAE: Somnolence” value (600 μg single dose) was 14.0%, the “TEAE: Vomiting” value (600 μg single dose) was 49.1% and the “LS mean Δplacebo, sum of pain intensity differences” value (single dose 200 μg) was −3.08. For the same compound, the “LS mean, sum of pain intensity differences” value (single dose 200 μg) was 46.05, the “Sum of pain intensity differences, LS mean Δplacebo” value (single dose 200 μg) was −3.08 and the “Sum of pain intensity differences, LS mean” value (single dose 200 μg) was 46.05. For the same compound, the “LS mean Δplacebo, sum of pain intensity differences” value (single dose 400 μg) was −13.85, the “LS mean, sum of pain intensity differences” value (single dose 400 μg) was 35.28 and the “Sum of pain intensity differences, LS mean Δplacebo” value (single dose 400 μg) was −13.85. For the same compound, the “Sum of pain intensity differences, LS mean” value (single dose 400 μg) was 35.28, the “LS mean Δplacebo, sum of pain intensity differences” value (single dose 600 μg) was −13.98 and the “LS mean, sum of pain intensity differences” value (single dose 600 μg) was 35.15. The “Sum of pain intensity differences, LS mean Δplacebo” value (single dose 600 μg) was −13.98, the “Sum of pain intensity differences, LS mean” value (single dose 600 μg) was 35.15 and the “Incidence of adverse events, dependence on dose” value (200, 400, 600 μg single dose) was “increased with the dose”. The “TEAE ASAT increased, subjects” value (single dose 200 μg) was 1.8%, the “TEAE Dizziness, subjects” value (single dose 200 μg) was 20.0% and the “TEAE Hot flush, subjects” value (single dose 200 μg) was 1.8%. For the same compound, the “TEAE Hyperhidrosis, subjects” value (single dose 200 μg) was 0%, the “TEAE Nausea, subjects” value (single dose 200 μg) was 29.1% and the “TEAE Pruritus, subjects” value (single dose 200 μg) was 0%. For the same compound, the “TEAE Somnolence, subjects” value (single dose 200 μg) was 1.8%, the “TEAE Vomiting, subjects” value (single dose 200 μg) was 9.1% and the deaths (single dose 200 μg) was 0. For the same compound, the “subjects with SAE's” value (single dose 200 μg) was 0 and the “subjects with TEAE(s)” value (single dose 200 μg) was 37 (67.3) n (%).
